This assay addresses EGFR T790M L858R (Homo sapiens, UniProt P00533, L858R/T790M). As to the kind of experiment: biochemical. The following applies: EGFR(T790M/L858R) Ki (μM), 5 μM ATP, 30 min, room temperature; apparent Ki (Morrison) converted by Cheng-Prusoff, Km of ATP 1.3 μM.

By UniProt entry, the sequences of proteins in these tests, tags left out. Residues count along the entry.
UniProt P00533, 25-1210 T790M/L858R limits assumed: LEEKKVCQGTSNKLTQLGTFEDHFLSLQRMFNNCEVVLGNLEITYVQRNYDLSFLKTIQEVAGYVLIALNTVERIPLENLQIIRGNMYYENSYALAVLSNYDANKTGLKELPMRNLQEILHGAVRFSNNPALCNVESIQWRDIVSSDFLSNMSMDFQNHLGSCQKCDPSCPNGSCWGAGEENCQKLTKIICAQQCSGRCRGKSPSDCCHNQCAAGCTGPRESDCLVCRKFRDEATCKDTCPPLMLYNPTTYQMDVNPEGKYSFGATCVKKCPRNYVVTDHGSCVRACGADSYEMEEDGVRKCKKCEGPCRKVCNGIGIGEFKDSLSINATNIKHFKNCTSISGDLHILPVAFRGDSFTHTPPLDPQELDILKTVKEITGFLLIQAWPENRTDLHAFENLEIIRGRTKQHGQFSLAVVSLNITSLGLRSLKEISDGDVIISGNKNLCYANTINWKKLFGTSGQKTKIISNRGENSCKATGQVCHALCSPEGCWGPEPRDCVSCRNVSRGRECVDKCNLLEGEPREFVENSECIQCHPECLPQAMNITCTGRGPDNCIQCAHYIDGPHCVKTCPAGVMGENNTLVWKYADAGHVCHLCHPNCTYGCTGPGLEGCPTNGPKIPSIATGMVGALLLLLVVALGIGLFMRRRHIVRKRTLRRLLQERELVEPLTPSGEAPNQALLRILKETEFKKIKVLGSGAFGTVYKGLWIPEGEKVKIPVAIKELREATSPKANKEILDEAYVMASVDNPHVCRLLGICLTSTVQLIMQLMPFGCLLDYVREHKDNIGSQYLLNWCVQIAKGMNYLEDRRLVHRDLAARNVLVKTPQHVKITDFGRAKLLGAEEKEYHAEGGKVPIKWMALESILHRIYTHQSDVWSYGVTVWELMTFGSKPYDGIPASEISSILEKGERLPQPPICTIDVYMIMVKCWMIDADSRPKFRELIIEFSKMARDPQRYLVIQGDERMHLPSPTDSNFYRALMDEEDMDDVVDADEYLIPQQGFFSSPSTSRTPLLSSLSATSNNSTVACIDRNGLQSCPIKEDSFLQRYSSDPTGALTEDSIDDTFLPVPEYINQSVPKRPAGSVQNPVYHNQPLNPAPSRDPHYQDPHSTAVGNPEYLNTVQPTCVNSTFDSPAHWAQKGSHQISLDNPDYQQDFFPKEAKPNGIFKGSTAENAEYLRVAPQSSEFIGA

Molecules are shown by their SMILES. “And” between values parts separate entries of the source, which are not always exact repeats. Equal entries are not always repeated.

On to `CC(C)n1cnc2cnc(Nc3ccnc(N4CCC5(CCN5)CC4)n3)cc21` [Example 228], for which the Ki stood at 0.548 µM.
Turning to `CC(C)n1cnc2cnc(Nc3ccnc(NC4COC5(CCNCC5)C4)n3)cc21` (centres unmarked) [Example 229], the Ki was found to be 0.105 µM.
Regarding `CC(C)n1cnc2cnc(Nc3ccnc(N4CCC5(CC4)CNCCO5)n3)cc21` [Example 230], the Ki came out at 0.115 µM.
On to `CC(C)n1cnc2cnc(Nc3ccnc(N4CCOC5(CCNCC5)C4)n3)cc21` [Example 231], for which the Ki came out at 0.76 µM.
In the case of `CC(C)n1cnc2cnc(Nc3ccnc(N4CCCC5(CNCCO5)C4)n3)cc21` (centres unmarked) [Example 232], the Ki stood at 1.2 µM.
`CC(C)n1cnc2cnc(Nc3ccnc(N4CCC5(CC4)CC(N)C5)n3)cc21` [Example 233]: the Ki is 1.06 µM.
As to `CC(C)n1cnc2cnc(Nc3ccnc(NCC4CC45CCNCC5)n3)cc21` (centres unmarked) [Example 234], the Ki stood at 0.0919 µM.
As for `CC(C)n1cnc2cnc(Nc3ccnc(N4CC5CC5(N)C4)n3)cc21` (centres unmarked) [Example 235], the Ki came to 0.989 µM.
In the case of `CC(C)n1cnc2cnc(Nc3ccnc(N4CC5CCNC5C4)n3)cc21` (centres unmarked) [Example 236], the Ki amounted to 1.72 µM.
Consider `CC(C)n1cnc2cnc(Nc3ccnc(N4CC5CNCC(C4)O5)n3)cc21` [Example 237], for which the Ki was 1.78 µM and 0.507 µM.
Regarding `CC(C)n1cnc2cnc(Nc3ccnc(N4CC5CC4(CN)C5)n3)cc21` [Example 238], the Ki was 1.73 µM.
On to `CC(C)n1cnc2cnc(Nc3ccnc(N4C[C@@H]5[C@H](C4)[C@H]5C(N)=O)n3)cc21` [Example 239], for which the Ki amounted to 0.559 µM.
For the compound `CC(C)n1cnc2cnc(Nc3ccnc(-c4ccnc(N)c4)n3)cc21` [Example 240], the Ki worked out at 0.224 µM.
In the case of `COCC1CN(c2nccc(Nc3cc4c(cn3)ncn4C(C)C)n2)CCN1` (centres unmarked) [Example 241] it was 0.745 µM; in that of `CC(C)n1cnc2cnc(Nc3ccnc(OCC(C)(C)C(N)=O)n3)cc21` [Example 242], 0.173 µM; in that of `COC1CCN(c2nccc(Nc3cc4c(cn3)c(C(=O)NCCCO)cn4C(C)C)n2)CC1` [Example 243], 0.0113 µM.
Consider `COC1CCN(c2nccc(Nc3cc4c(cn3)c(C(=O)NCCCN3CCOCC3)cn4C(C)C)n2)CC1` [Example 244], for which the Ki came out at 0.0126 µM.
Regarding `COC1CCN(c2nccc(Nc3cc4c(cn3)c(C(=O)NCCN3CCN(C)CC3)cn4C(C)C)n2)CC1` [Example 245], the Ki came to 0.0071 µM.
In the case of `COC1CCN(c2nccc(Nc3cc4c(cn3)c(C(=O)NCCN3CCCC3)cn4C(C)C)n2)CC1` [Example 246] it was 0.0102 µM.
On to `COC1CCN(c2nccc(Nc3cc4c(cn3)c(C(=O)NCCN3CCNCC3)cn4C(C)C)n2)CC1` [Example 247], for which the Ki came out at 0.0062 µM.
Regarding `COC1CCN(c2nccc(Nc3cc4c(cn3)c(C(=O)NCC3CCNCC3)cn4C(C)C)n2)CC1` [Example 248], the Ki came out at 0.003 µM.
With `COC1CCN(c2nccc(Nc3cc4c(cn3)c(C(=O)NCCS(C)(=O)=O)cn4C(C)C)n2)CC1` [Example 249] the figure was 0.0028 µM; with `COC1CCN(c2nccc(Nc3cc4c(cn3)c(C(=O)NC3CNC3)cn4C(C)C)n2)CC1` [Example 250], 0.0054 µM; with `CC(C)n1c(CO)nc2cnc(Nc3ccnc(-c4cn(CC5CC5)nc4N)n3)cc21` [Example 251, (6-(2-(3-Amino-1-(cyclopropylmethyl)-1H-pyrazol-4-yl)pyrimidin-4-ylamino)-1-isopropyl-1H-imidazo[4,5-c]pyridin-2-yl)methanol], 0.0338 µM.
In the case of `CC(C)n1cc(C(=O)NC2CCC(C#N)CC2)c2cnc(Nc3ccnc(-c4cnn(S(=O)(=O)C5CC5)c4)n3)cc21` (centres unmarked) [Example 252, N-(4-Cyanocyclohexyl)-6-((2-(1-(cyclopropylsulfonyl)-1H-pyrazol-4-yl)pyrimidin-4-yl)amino)-1-isopropyl-1H-pyrrolo[3,2-c]pyridine-3-carboxamide], the Ki is 0.000205 µM.
For the compound `Cc1cn(CCO)nc1-c1cn(C(C)C)c2cc(Nc3ccnc(-c4cnn(S(=O)(=O)C5CC5)c4)n3)ncc12` [Example 253, 2-(3-(6-(2-(1-(Cyclopropylsulfonyl)-1H-pyrazol-4-yl)pyrimidin-4-ylamino)-1-isopropyl-1H-pyrrolo[3,2-c]pyridin-3-yl)-4-methyl-1H-pyrazol-1-yl)ethanol], the Ki stood at 0.00197 µM.
Take `CC(C)n1cc(-c2cn[nH]n2)c2cnc(Nc3ccnc(-c4cn[nH]c4)n3)cc21` [Example 254, N-(2-(1H-pyrazol-4-yl)pyrimidin-4-yl)-1-isopropyl-3-(2H-1,2,3-triazol-4-yl)-1H-pyrrolo[3,2-c]pyridin-6-amine]: the Ki is 0.0033 µM.
As for `CCS(=O)(=O)n1cc(-c2nccc(Nc3cc4c(cn3)c(-c3cnn(CC(=O)NC5COC5)c3)cn4C(C)C)n2)cn1` [Example 255, 2-(4-(6-(2-(1-(Ethylsulfonyl)-1H-pyrazol-4-yl)pyrimidin-4-ylamino)-1-isopropyl-1H-pyrrolo[3,2-c]pyridin-3-yl)-1H-pyrazol-1-yl)-N-(oxetan-3-yl)acetamide], the Ki is 0.000919 µM.
Regarding `Cc1nc2cnc(Nc3ccnc(-c4cnn(S(=O)(=O)C5CC5)c4)n3)cc2n1C(C)C(F)(F)F` (centres unmarked) [Example 257, N-(2-(1-(Cyclopropylsulfonyl)-1H-pyrazol-4-yl)pyrimidin-4-yl)-2-methyl-1-(1,1,1-trifluoropropan-2-yl)-1H-imidazo[4,5-c]pyridin-6-amine], the Ki worked out at 0.00194 µM.
In the case of `Cc1nc2cnc(Nc3ccnc(-c4cnn(S(=O)(=O)C5CCNC5)c4)n3)cc2n1C(C)C` (centres unmarked) [Example 258, 1-Isopropyl-2-methyl-N-(2-(1-(pyrrolidin-3-ylsulfonyl)-1H-pyrazol-4-yl)pyrimidin-4-yl)-1H-imidazo[4,5-c]pyridin-6-amine] it was 0.00381 µM; in that of `CC(=O)N1CCC(S(=O)(=O)n2cc(-c3nccc(Nc4cc5c(cn4)nc(C)n5C(C)C)n3)cn2)C1` (centres unmarked) [Example 259, 1-(3-(4-(4-(1-Isopropyl-2-methyl-1H-imidazo[4,5-c]pyridin-6-ylamino)pyrimidin-2-yl)-1H-pyrazol-1-ylsulfonyl)pyrrolidin-1-yl)ethanone], 0.0132 µM; in that of `Cc1nc2cnc(Nc3ccnc(-c4cnn(S(=O)(=O)C5COC5)c4)n3)cc2n1C(C)C` [Example 260, 1-Isopropyl-2-methyl-N-(2-(1-(oxetan-3-ylsulfonyl)-1H-pyrazol-4-yl)pyrimidin-4-yl)-1H-imidazo[4,5-c]pyridin-6-amine], 0.00588 µM.
For `COC1CCN(c2nccc(Nc3cc4c(cn3)nc(C(=O)N3CCN(C)CC3)n4C(C)C)n2)CC1` [Example 261, (1-Isopropyl-6-(2-(4-methoxypiperidin-1-yl)pyrimidin-4-ylamino)-1H-imidazo[4,5-c]pyridin-2-yl)(4-methylpiperazin-1-yl)methanone], the Ki was 0.435 µM.
On to `CC(C)n1c(C(F)F)nc2cnc(Nc3ccnc(-c4cnn(S(=O)(=O)C5CC5)c4)n3)cc21` [Example 263, N-(2-(1-(Cyclopropylsulfonyl)-1H-pyrazol-4-yl)pyrimidin-4-yl)-2-(difluoromethyl)-1-isopropyl-1H-imidazo[4,5-c]pyridin-6-amine], for which the Ki came to 0.0157 µM.
On to `CC(C)n1c(C=O)nc2cnc(Nc3ccnc(-c4cnn(S(=O)(=O)C5CC5)c4)n3)cc21` [Example 264, 6-(2-(1-(Cyclopropylsulfonyl)-1H-pyrazol-4-yl)pyrimidin-4-ylamino)-1-isopropyl-1H-imidazo[4,5-c]pyridine-2-carbaldehyde], for which the Ki came to 0.00172 µM.
On to `CCCC(C)n1c(CO)nc2cnc(Nc3ccnc(-c4cnn(S(=O)(=O)C5CC5)c4)n3)cc21` (centres unmarked) [Example 265, (6-(2-(1-(Cyclopropylsulfonyl)-1H-pyrazol-4-yl)pyrimidin-4-ylamino)-1-(pentan-2-yl)-1H-imidazo[4,5-c]pyridin-2-yl)methanol], for which the Ki was found to be 0.00612 µM.
`COC1CCN(c2nccc(Nc3cc4c(cn3)nc(C)n4C(C)C3CC3)n2)CC1` (centres unmarked) [Example 268, [1-(1-Cyclopropylethyl)-2-methyl-1H-imidazo[4,5-c]pyridin-6-yl]-[2-(4-methoxypiperidin-1-yl)pyrimidin-4-yl]amine]: the Ki was 0.0092 µM.
For the compound `CC(C)n1cnc2cnc(Nc3ccnc(C4CCCCC4)n3)cc21` [Example 269, (2-Cyclohexylpyrimidin-4-yl)-(1-isopropyl-1H-imidazo[4,5-c]pyridin-6-yl)amine], the Ki came to 0.514 µM.
As to `CC(C)n1c(CO)nc2cnc(Nc3ccnc(-c4cnn(S(=O)(=O)C5CC5)c4)n3)cc21` [Example 272, {6-[2-(1-Cyclopropanesulfonyl-1H-pyrazol-4-yl)pyrimidin-4-ylamino]-1-isopropyl-1H-imidazo[4,5-c]pyridin-2-yl}methanol], the Ki turned out to be 0.00355 µM.
Consider `CO[C@H]1[C@@H]2CC[C@H]1CN(c1nccc(Nc3cc4c(cn3)nc(CO)n4C(C)C)n1)C2` [Example 273, (1-Isopropyl-6-((2-((1R,5R,8r)-8-methoxy-3-azabicyclo[3.2.1]octan-3-yl)pyrimidin-4-yl)amino)-1H-imidazo[4,5-c]pyridin-2-yl)methanol], for which the Ki is 0.0489 µM.
Regarding `COC1(CN)CCN(c2nccc(Nc3cc4c(cn3)nc(CO)n4C(C)C)n2)CC1` [Example 274, {6-[2-(4-Aminomethyl-4-methoxypiperidin-1-yl)pyrimidin-4-ylamino]-1-isopropyl-1H-imidazo[4,5-c]pyridin-2-yl}methanol], the Ki worked out at 0.122 µM.
With `Cc1nc2cnc(Nc3ccnc(C4=CCCCC4)n3)cc2n1C(C)C` [Example 275, (2-Cyclohex-1-enylpyrimidin-4-yl)-(1-isopropyl-2-methyl-1H-imidazo[4,5-c]pyridin-6-yl)amine], the Ki came out at 0.0164 µM.
Take `Cc1nc2cnc(Nc3ccnc(C#N)n3)cc2n1C(C)C` [Example 276, 4-(1-Isopropyl-2-methyl-1H-imidazo[4,5-c]pyridin-6-ylamino)pyrimidine-2-carbonitrile]: the Ki turned out to be 0.536 µM.
Turning to `Cc1nc2cnc(Nc3ccnc(N4CCc5cnn(CCO)c5C4)n3)cc2n1C(C)C` [Example 277, 2-{6-[4-(1-Isopropyl-2-methyl-1H-imidazo[4,5-c]pyridin-6-ylamino)pyrimidin-2-yl]-4,5,6,7-tetrahydropyrazolo[3,4-c]pyridin-1-yl}ethanol], the Ki was 0.0945 µM.

Values taken from US9890152B2 (Genentech, Inc., priority 2012, dated 2018).
